PTHR1 ag = PTHR1 (human) receptor agonism. Potency, µM (series often up to 115 µM), for the others: at the highest dose activation, actives largely listed as activators. HEK293 GP2 PTHR1 cells, GloSensor cAMP luminescence, 1 h. 410,000 compounds, 0.075% hits; note: potency is the fitted concentration of half-maximal effect; nearly all actives have a fitted effect of over 55% in size
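HEK-293-derived GP2 cells expressing PTHR1 and a GloSensor cAMP reporter, 3,000/well, plated overnight, given luciferin plus IBMX (each 0.5 mM as added) for 1 h at 37 °C, then compound for 1 h at 37 °C. Luminescence was read after 15 min at room temperature.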
GLP1R cytotox = cytotoxicity counter-screen for GLP-1 receptor inverse agonists | HEK293 cAMP-luciferase reporter cells, luminescence, 24 h | Potency, µM (series often up to 38.3 µM), without a hit: at the highest dose activity change, negative = inhibition, actives largely listed as inhibitors | 410,000 compounds, 0.13% hits | AID 624418;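 note: loss of luciferase light is scored as toxicity; potency is the fitted concentration of half-maximal effect; % is set by controls: 0 for no effect and ±100 for the full control effect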
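Seeding density was 200 cells/uL; after overnight-length (12 h) culture, 23 nL compounds went on for 24 h at 37 °C. Readout used a luciferase detection reagent, luminescence taken after 12 min at room temperature.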
Pin1 inhibitor = blocks the human prolyl isomerase Pin1. Q13526. 390,000 compounds, 0.009% hits. Pin1 FP peptide displacement, HiFluor488, 10 min. Potency, µM (series often up to 115 µM), for the others: at the highest dose activity, negative = inhibition, hits mostly inhibitors. AID 504891; active = well fitted inhibition curve with a large enough effect in the polarisation, with a control signal flat, not every such curve was filed as active; inconclusive = small, poorly fitted or top-dose-only effect, or effect the other way, or a change in a side signal; inactive = no such curve, though single readings can be large or run the other way; the % refers to the polarisation; note: potency is the fitted concentration of half-maximal effect; % is set by controls: 0 for no effect and ±100 for the full control effect
GLP1R inv ag = acts as inverse agonist at human GLP-1 receptor; P43220; 410,000 compounds, 1.6% hits; Potency, µM (highest dose often 38.3 µM), inactives show top-dose activity change, negative = inhibition, usual class: inhibitors; HEK293 GLP-1R CRE-luciferase, luminescence, 24 h; GLP-1R form is constitutively active; note: potency is the fitted concentration of half-maximal effect; % is set by controls: 0 for no effect and ±100 for the full control effect; nearly all actives have a fitted effect of over 55% in size
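Assay principle: reduced luminescence from a cAMP-responsive reporter in HEK293 cells co-expressing a constitutively active GLP-1R. Conditions: 24 hr compound incubation, 37 deg C, 5% CO2.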
GLP1R ag = agonists of human GLP-1 receptor. P43220. HEK293 GLP-1R CRE-luciferase, luminescence, 4-6 h; cells express a hypersensitive GLP-1R form. Potency, µM (doses to about 45.6 µM), for the others: at the highest dose activation, usual class: activators. 380,000 compounds, 0.007% hits; note: potency is the fitted concentration of half-maximal effect; % of control where 0% means no effect
miR-21 reporter = raises the signal of a miR-21 reporter | HeLa miR-21 FLuc reporter, luciferase, 48 h | Potency, µM (highest dose often 38.3 µM), for inactives: at the highest dose reporter change, positive = more light | 340,000 tested, under 10 active | AID 2288; active = well fitted rising curve with a large enough effect; inconclusive = small, poorly fitted or top-dose-only effect; inactive = no such curve, though single readings can be large or run the other way;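 also: % of control where 0% means no effect; miR-21 action dims this reporter so a rising signal means less miR-21 action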
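Compounds were titrated across several concentrations (up to approximately 40 uM) and incubated 48 hours with HeLa miR-21-FLuc reporter cells (miR-21 target sequence downstream of FLuc, endogenous miR-21). Readout was firefly luciferase luminescence after lytic detection reagent.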
* marks the source's active call; other numbers are inactive results; i = inactive; ? = inconclusive; · = no result; [ ] = another dose, or the depositor's remark. Only some compounds are listed: those with a hit (about 1.7% of all), similar ones and a draw of the others. Unless noted, calls come from the whole dose curve; as a rule, active = well fitted curve in the direction sought with a large enough effect; inconclusive = small, poorly fitted or top-dose-only effect, or another doubt; inactive = no such curve, though single readings can be large; an effect the other way counts as inactive or inconclusive.

1	O=C(Nc1cccc(Br)c1)c1ccc(CN2CCc3ccccc3C2)cc1
2	COc1ccc(NC(=O)c2ccc(CN3CCc4ccccc4C3)cc2)c(OC)c1
3	CCOC(=O)C1CCN(C(=O)Cn2nc(CC)n3c(cc4occc43)c2=O)CC1
4	O=c1cc(N2CCCCC2)c(-c2ccccc2)nn1Cc1ccc(F)cc1
5	Cc1ccc(C(c2cccc(Br)c2)c2c(C)[nH]c3ccccc23)s1 (stereo not given)
6	Cc1[nH]c2ccccc2c1C(c1ccccn1)c1c(C)[nH]c2ccccc12
Screen / compound no.	1	2	3	4	5	6
GLP1R inv ag	2.24µM*	?	5.4%	2µM*	10µM*	?
GLP1R ag	1.3%	-6.1%	·	-3.0%	·	-2.2%
PTHR1 ag	-78.8%	-57.6%	-3.5%	i	-6.1%	-9.6%[57.5 µM]
GLP1R cytotox	-15.1%	-3.2%	5.3%	-5.1%	0.4%	-3.4%
Pin1 inhibitor	9.1%	-5.0%	-10.4%	1.6%	18.4%	-2.0%
miR-21 reporter	9.8%	9.9%	-1.5%	11.9%	6.1%	-4.8%

7	CCOC(=O)c1c(NC(=O)CSc2nnc(-c3c[nH]c4ccccc34)n2CCOC)sc2c1CCCC2
8	Cc1cccc(N2CCN(C(=O)C3CCCCC3)CC2)c1C
9	Cc1cccc(N2CCN(C(=O)C3CCCN(S(=O)(=O)c4c(C)noc4C)C3)CC2)c1C (stereo not given)
10	Cc1ccccc1N1CCN(C(=O)C2CCCCC2)CC1
11	C=CCn1c(SCC#N)nc2cc(Cl)ccc2c1=O
12	CC(Oc1ccccc1)C(=O)Nc1nnc2n1CCS2 (stereo not given)
Screen / compound no.	7	8	9	10	11	12
GLP1R inv ag	11.2µM*	10µM*	7.94µM*	?	·	24.2%
GLP1R ag	-1.0%	-1.1%	-4.4%	6.3%	·	·
PTHR1 ag	i	-19.9%[57.5 µM]	-36.2%	-26.5%	·	31.6µM*
GLP1R cytotox	-12.9%	5.8%	-8.8%	20.2%	·	3.9%
Pin1 inhibitor	9.2%	0.7%	-0.1%	-2.8%	-1.4%	1.8%
miR-21 reporter	24.7%	0.9%	·	-2.1%	·	1.1%

13	CCOC(=O)c1ccc(NC(=O)C2CCN(C(=O)N3CC(C)Oc4ccc(C)cc43)CC2)cc1 (stereo not given)
14	Cc1c(C(=O)N2c3ccccc3CC2C)oc2ccccc12 (stereo not given)
15	CC(C)(C)OC(=O)[C@H](Cc1ccccc1)NC(=O)c1nc[nH]c1C(=O)N[C@@H](Cc1ccccc1)C(=O)OC(C)(C)C
16	C[C@H](NC(=O)c1nc[nH]c1C(=O)N[C@@H](Cc1ccccc1)C(=O)OC(C)(C)C)C(=O)OC(C)(C)C
17	O=C(CNc1ccc2ccccc2c1)N/N=C/c1ccc(OC(=O)/C=C/c2ccco2)cc1
18	O=C(CNc1cccc2ccccc12)N/N=C/c1ccc(OC(=O)/C=C/c2ccco2)cc1
Screen / compound no.	13	14	15	16	17	18
GLP1R inv ag	?	10µM*	10µM*	?	?	8.91µM*
GLP1R ag	·	-2.6%	0.2%	2.3%	2.7%	0.1%
PTHR1 ag	-25.5%	-84.2%	-31.6%	-70.4%	-52.3%	-9.6%
GLP1R cytotox	-10.0%	-16.1%	0.2%	-27.5%	-22.3%	-18.6%
Pin1 inhibitor	0.2%	-13.0%	?	?	1.5%	-3.0%
miR-21 reporter	0.5%	-18.9%	?	26.8%	-16.9%	-3.7%

19	COc1ccccc1CNC(=O)c1ccc(-c2nc(CS(=O)c3ccc(C)cc3)c(C)o2)cc1 (stereo not given)
20	Cc1nc2c(sc(=S)n2Cc2ccco2)c(=O)n1CC(=O)Nc1cc(F)ccc1F
21	CCCNC(=O)c1ccc2nc(-c3ccccc3)c(-c3ccccc3)nc2c1
22	CN1CCN(C(=O)c2ccc3nc(-c4ccccc4)c(-c4ccccc4)nc3c2)CC1
23	CCN(CC)C(=O)c1ccc2nc(-c3ccccc3)c(-c3ccccc3)nc2c1
24	O=C(c1ccc2nc(-c3ccccc3)c(-c3ccccc3)nc2c1)N1CCCCC1
Screen / compound no.	19	20	21	22	23	24
GLP1R inv ag	-0.3%	1.41µM*	3.55µM*	-29.3%	5.01µM*	2.51µM*
GLP1R ag	·	-4.4%	-5.1%	7.2%	1.9%	4.1%
PTHR1 ag	-29.1%	-13.9%	-14.3%[57.5 µM]	i	-15.5%	-26.7%
GLP1R cytotox	-6.6%	-9.8%	-11.9%	2.8%	5.9%	4.6%
Pin1 inhibitor	-1.1%	1.2%	?	2.2%	0.3%	-0.6%
miR-21 reporter	-7.6%	-3.0%	16.6%	-1.4%	2.4%	14.2%

25	O=C(CNC(=O)c1ccc(-c2ccccc2)cc1)OC(C(=O)Nc1cc(C(F)(F)F)ccc1Cl)c1ccccc1 (stereo not given)
26	CC(C)(c1ccccc1)c1ccc(OCCCN2CCNCC2)cc1
27	Cc1ccc(OCCCCCCN2CCNCC2)c(Br)c1
28	Cc1cc(C)c(OCCOCCN2CCNCC2)c(C)c1
29	CC1CCN(CCCCOc2ccc(C(C)(C)C)cc2)CC1
30	CC(C)(C)c1ccc(OCCCCCCN2CCNCC2)cc1
Screen / compound no.	25	26	27	28	29	30
GLP1R inv ag	·	1.12µM*	2.82µM*	10µM*	?	3.98µM*
GLP1R ag	·	11.6%	-3.1%	0.9%	-4.5%	6.3%
PTHR1 ag	·	i	i	-2.3%	i	i
GLP1R cytotox	·	?	?	0.7%	-24.0%	?
Pin1 inhibitor	3.3%	-2.9%	-0.1%	-6.3%	-8.5%	-0.6%
miR-21 reporter	·	-5.5%	·	-0.8%	-4.6%	·

Overlap with the part before: three compounds, followed by the next part.
28	Cc1cc(C)c(OCCOCCN2CCNCC2)c(C)c1
29	CC1CCN(CCCCOc2ccc(C(C)(C)C)cc2)CC1
30	CC(C)(C)c1ccc(OCCCCCCN2CCNCC2)cc1
31	Cc1ccc(OCCCCN2CCC(C)CC2)c(Br)c1
32	Cc1cc(C)c(OCCOCCN2CCCC2)c(C)c1
33	Cc1ccc(F)c(C2C3C=CCC(C)C3C(=O)N2Cc2ccccc2)c1 (stereo not given)
34	COc1cccc(-c2nc3c(C#N)c[nH]n3c2NC2CCCCC2)c1
35	NCCCCC(NC(=O)C1CCCN1C(=O)C1CSSCC(N)C(=O)NC(Cc2ccccc2)C(=O)NC(Cc2ccccc2)C(=O)NC(CCC(N)=O)C(=O)NC(CC(N)=O)C(=O)N1)C(=O)NCC(N)=O (stereo not given)
36	Cc1ccccc1S(=O)(=O)N1CCN(c2nc(-c3cccs3)nc3ccccc23)CC1
Screen / compound no.	28	29	30	31	32	33	34	35	36
GLP1R inv ag	10µM*	?	3.98µM*	0.0%	?	·	19.0%	·	·
GLP1R ag	0.9%	-4.5%	6.3%	9.4%	12.7%	·	·	-0.2%	·
PTHR1 ag	-2.3%	i	i	-25.5%	-11.6%	·	-19.9%	·	·
GLP1R cytotox	0.7%	-24.0%	?	?	-3.3%	·	-2.3%	·	·
Pin1 inhibitor	-6.3%	-8.5%	-0.6%	-19.2%	-2.6%	-1.2%	-5.0%	·	1.8%
miR-21 reporter	-0.8%	-4.6%	·	-10.5%	·	·	20.8%	·	·

37	CCc1ccccc1NC(=O)CSc1ncc2c(n1)-c1ccccc1N(Cc1ccc(C)cc1)S2(=O)=O
38	Cc1cccc(Cn2c(-c3cccc(Br)c3)nc3ccccc32)c1
39	Brc1cccc(Cn2c(-c3cncs3)nc3ccccc32)c1
40	CCOC(=O)c1c(Nc2cc(C)cc(C)c2)nnc(-c2ccccc2)c1-c1ccccc1
41	COCCCOc1cc(C[C@@H](C[C@H](N)[C@@H](O)C[C@H](C(=O)NCC(C)(C)C(N)=O)C(C)C)C(C)C)ccc1OC
42	Cc1cccc(Oc2ccc(S(=O)(=O)N3CCCCC3)cc2N)c1
Screen / compound no.	37	38	39	40	41	42
GLP1R inv ag	6.1%	10µM*	0.0%	7.94µM*	·	10µM*
GLP1R ag	·	·	21.2%	12.0%	-1.1%	19.1%
PTHR1 ag	-90.7%	i	-0.6%[57.5 µM]	-10.8%	·	-26.0%
GLP1R cytotox	1.0%	7.8%	-9.8%	-4.7%	·	-16.0%
Pin1 inhibitor	4.4%	23.2%	2.9%	-1.4%	·	1.7%
miR-21 reporter	7.6%	0.3%	-0.4%	17.0%	·	12.0%
